Assay results reported in PubChem BioAssay (NCI).
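Results reflect a 48-hour exposure of cells in 96-well plates to compound at five concentrations. GI50 marks 50% less growth. TGI marks complete inhibition of growth.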

Key:
Assay in all cases: NCI anticancer screen, dose series, 48 h
MALME-3M melanoma = tested on: MALME-3M melanoma
MDA-MB-435 = tested on: MDA-MB-435
MDA-MB-231 breast = tested on: MDA-MB-231 breast
MOLT-4 leukemia = tested on: MOLT-4 leukemia
OVCAR-4 ovarian = tested on: OVCAR-4 ovarian
DU-145 prostate = tested on: DU-145 prostate
T-47D breast = tested on: T-47D breast
HS 578T breast = tested on: HS 578T breast
BT-549 breast = tested on: BT-549 breast
HT29 colon = tested on: HT29 colon
M14 melanoma = tested on: M14 melanoma
NCI-H23 lung = tested on: NCI-H23 lung
SW-620 colon = tested on: SW-620 colon
SK-MEL-2 melanoma = tested on: SK-MEL-2 melanoma
UO-31 renal = tested on: UO-31 renal
CAKI-1 renal = tested on: CAKI-1 renal
UACC-62 melanoma = tested on: UACC-62 melanoma
PC-3 prostate = tested on: PC-3 prostate
SR leukemia = tested on: SR leukemia
RPMI-8226 leukemia = tested on: RPMI-8226 leukemia
SNB-19 CNS = tested on: SNB-19 CNS
NCI-H226 lung = tested on: NCI-H226 lung
NCI-H522 lung = tested on: NCI-H522 lung
OVCAR-8 ovarian = tested on: OVCAR-8 ovarian
HOP-62 NSCLC = tested on: HOP-62 NSCLC
NCI-H322M lung = tested on: NCI-H322M lung
UACC-257 melanoma = tested on: UACC-257 melanoma
SF-295 CNS = tested on: SF-295 CNS
U251 CNS = tested on: U251 CNS
OVCAR-5 ovarian = tested on: OVCAR-5 ovarian
786-0 renal = tested on: 786-0 renal
EKVX NSCLC = tested on: EKVX NSCLC
SNB-75 CNS = tested on: SNB-75 CNS
HCC-2998 colon = tested on: HCC-2998 colon
K-562 leukemia = tested on: K-562 leukemia
SN12C renal = tested on: SN12C renal
ACHN renal = tested on: ACHN renal
A549 NSCLC = tested on: A549 NSCLC
HCT-15 colon = tested on: HCT-15 colon
NCI/ADR-RES ovarian = tested on: NCI/ADR-RES ovarian
SK-MEL-5 melanoma = tested on: SK-MEL-5 melanoma
LOX IMVI melanoma = tested on: LOX IMVI melanoma
COLO 205 colon = tested on: COLO 205 colon
TK-10 renal = tested on: TK-10 renal
HCT-116 colon = tested on: HCT-116 colon
A498 renal = tested on: A498 renal
KM12 colon = tested on: KM12 colon
SK-OV-3 ovarian = tested on: SK-OV-3 ovarian
SF-539 CNS = tested on: SF-539 CNS
HOP-92 NSCLC = tested on: HOP-92 NSCLC
CCRF-CEM leukemia = tested on: CCRF-CEM leukemia
SF-268 CNS = tested on: SF-268 CNS
MCF7 breast = tested on: MCF7 breast
RXF 393 renal = tested on: RXF 393 renal
HL-60(TB) leukemia = tested on: HL-60(TB) leukemia
NCI-H460 lung = tested on: NCI-H460 lung
OVCAR-3 ovarian = tested on: OVCAR-3 ovarian

## Cc1c([N+](=O)[O-])cc([N+](=O)[O-])c(-c2c([N+](=O)[O-])cc([N+](=O)[O-])c(C)c2[N+](=O)[O-])c1[N+](=O)[O-]
MALME-3M melanoma
  GI50: 1.72 µM
  TGI: 4.66 µM
MDA-MB-435
  GI50: 2.28 µM
  TGI: 5.07 µM
MDA-MB-231 breast
  GI50: 2.5 µM
  TGI: 8.52 µM
MOLT-4 leukemia
  GI50: 0.385 µM
  TGI: > 100 µM
OVCAR-4 ovarian
  GI50: 2.57 µM
  TGI: 6.26 µM
DU-145 prostate
  GI50: 2.74 µM
  TGI: > 100 µM
T-47D breast
  GI50: 1.91 µM
  TGI: 5.31 µM
HS 578T breast
  GI50: 6.42 µM
  TGI: > 100 µM
BT-549 breast
  GI50: 2.44 µM
  TGI: 5.63 µM
HT29 colon
  GI50: 1.08 µM
  TGI: 4.52 µM
M14 melanoma
  GI50: 4.23 µM
  TGI: > 100 µM
NCI-H23 lung
  GI50: 3.89 µM
  TGI: > 100 µM
SW-620 colon
  GI50: 2.05 µM
  TGI: > 100 µM
SK-MEL-2 melanoma
  GI50: 4.36 µM
  TGI: 25.6 µM
UO-31 renal
  GI50: 2 µM
  TGI: 4.42 µM
CAKI-1 renal
  GI50: 3.61 µM
  TGI: 13.4 µM
UACC-62 melanoma
  GI50: 4 µM
  TGI: > 100 µM
PC-3 prostate
  GI50: 3.17 µM
  TGI: 55.8 µM
SR leukemia
  GI50: 0.367 µM
  TGI: > 100 µM
RPMI-8226 leukemia
  GI50: 0.656 µM
  TGI: 54.9 µM
SNB-19 CNS
  GI50: 3.19 µM
  TGI: 7.7 µM
NCI-H226 lung
  GI50: 2.59 µM
  TGI: 5.8 µM
NCI-H522 lung
  GI50: 1.75 µM
  TGI: 4.93 µM
OVCAR-8 ovarian
  GI50: 2.84 µM
  TGI: 7.62 µM
HOP-62 NSCLC
  GI50: 5.36 µM
  TGI: > 100 µM
NCI-H322M lung
  GI50: 3.76 µM
  TGI: 9.44 µM
UACC-257 melanoma
  GI50: 2.57 µM
  TGI: 6.32 µM
SF-295 CNS
  GI50: 4.33 µM
  TGI: 69.8 µM
U251 CNS
  GI50: 2.67 µM
  TGI: 7.24 µM
OVCAR-5 ovarian
  GI50: 2.32 µM
  TGI: 6.51 µM
786-0 renal
  GI50: 2.71 µM
  TGI: 9.14 µM
EKVX NSCLC
  GI50: 47.1 µM
  TGI: > 100 µM
SNB-75 CNS
  GI50: 4.29 µM
  TGI: 17.1 µM
HCC-2998 colon
  GI50: 1.75 µM
  TGI: 3.89 µM
K-562 leukemia
  GI50: 0.786 µM
  TGI: > 100 µM
SN12C renal
  GI50: 3.63 µM
  TGI: > 100 µM
ACHN renal
  GI50: 2.81 µM
  TGI: 6.62 µM
A549 NSCLC
  GI50: 8.49 µM
  TGI: > 100 µM
HCT-15 colon
  GI50: 1.84 µM
  TGI: 4.48 µM
NCI/ADR-RES ovarian
  GI50: 4.31 µM
  TGI: > 100 µM
SK-MEL-5 melanoma
  GI50: 3.46 µM
  TGI: 12.9 µM
LOX IMVI melanoma
  GI50: 0.323 µM
  TGI: 11.8 µM
COLO 205 colon
  GI50: 2.9 µM
  TGI: 6.64 µM
TK-10 renal
  GI50: 4.76 µM
  TGI: > 100 µM
HCT-116 colon
  GI50: 0.856 µM
  TGI: > 100 µM
A498 renal
  GI50: 17.2 µM
  TGI: 35.5 µM
KM12 colon
  GI50: 2.86 µM
  TGI: 9.12 µM
SK-OV-3 ovarian
  GI50: 4.35 µM
  TGI: 76.6 µM
SF-539 CNS
  GI50: 5.77 µM
  TGI: > 100 µM
HOP-92 NSCLC
  GI50: 3.4 µM
  TGI: 22.1 µM
CCRF-CEM leukemia
  GI50: 1.73 µM
  TGI: > 100 µM
SF-268 CNS
  GI50: 1.88 µM
  TGI: 4.41 µM
MCF7 breast
  GI50: 0.183 µM
  TGI: 0.767 µM
RXF 393 renal
  GI50: 0.139 µM
  TGI: 0.909 µM
HL-60(TB) leukemia
  GI50: 0.494 µM
  TGI: 18 µM
NCI-H460 lung
  GI50: 1.89 µM
  TGI: 5.2 µM
OVCAR-3 ovarian
  GI50: 3.2 µM
  TGI: > 100 µM
